Experimental data reported in article PMC8905628, “Integrin α6-Targeted Molecular Imaging of Central Nervous System Leukemia in Mice” (Frontiers in Bioengineering and Biotechnology, 2022).

Tested on: NALM6-luciferase tumor-bearing mice
Test: PET imaging of NALM6-luciferase tumor-bearing mice (CNS-L)
Design: species or system NOD/SCID mice
Conditions: mouse, in vivo

SMILES: OC[C@H]1OC(O)[C@H](F)[C@@H](O)[C@@H]1O (some centres unmarked) [^18F-FDG, ^18F-fluorodeoxyglucose]
- distribution of radioactivity in the head: diffuse enhanced radioactivity in the brain tissue
- tumor-to-background ratio: 0.58
